Drawing on US20250042848A1, “DEUTERATED FUNCTIONALIZED DERIVATIVES OF alpha-ALANINE, IN [sequence] FOR THE TREATMENT OF NEUROLOGICAL DISEASES” (UNIWERSYTET JAGIELLONSKI, priority 2021, published 2025), this text covers Vz/F for 1 compound.

The conditions of this data set: mouse, in vivo, po, 40 mg/kg. How it is done:
The animals were housed at a temperature of 22-24° C., humidity of 50% (+/−10%), in a room providing 15 air changes per hour, with 12:12 hours light-dark cycle. In addition, they had constant access to food and water. […] Blood was allowed to clot at room temperature for 20 min, then centrifuged for 5 min, 10,000×g (Eppendorf miniSpin centrifuge, Germany) to obtain serum. The obtained biological material was stored at −70° C. until analysis.
Concentrations of the tested compounds in murine serum and brain homogenates were determined by high-performance liquid chromatography-tandem mass spectrometry (HPLC-MS/MS). Analyzes were performed on a Sciex QTRAP 4500 triple quad mass spectrometer coupled to an Exion LC AC HPLC (Danaher Corporation, USA). The chromatographic separation was carried out on a Hypersil Gold™ C18 column (3×50 mm, 5 μm, Thermo Scientific, USA), using a mixture of acetonitrile and water with 0.1% formic acid as the mobile phase. Analyzes were performed at 40° C. and the gradient shown in Table 7 was used to obtain optimal retention time. Valsartan was used as an internal standard. Positive ionization mode (ESI+) was used for maximum sensitivity. Ion path parameters were optimized by continuous infusion (7 μL/min) of a solution of the tested compound directly to the mass spectrometer using a syringe pump. […]

Each structure is given as a SMILES string.

For the compound `[2H]C([2H])(NC(=O)[C@@H](C)N1C(=O)C([2H])([2H])C([2H])([2H])C1=O)c1ccccc1F` [d6-(R)-7, (R)-2-(2,5-dioxopyrrolidin-1-yl-3,3,4,4-d4)-N-((2-fluorophenyl)methyl-d2) propanamide], the Vz/F was 1.45 L/kg.
